Tested on: PBMCs
Assay: SCNP signaling in LPS-treated PBMCs with inhibitors (Example 14, FIGS. 22, 23)
Conditions: LPS plus inhibitor, 2 hours

In the case of C[C@@H]1CCN(C(=O)CC#N)C[C@@H]1N(C)c1ncnc2[nH]ccc12 [Tofacitinib], the “inhibition of p-STAT1 in CD4+ T cells” value is reported as 102%.

From patent publication US9459246B2, “Induced intercellular communication” (Nodality, Inc., priority 2009, dated 2016)
